Our source for the IC50 values is ChEMBL document CHEMBL1155077, “Kinesin spindle protein (KSP) inhibitors. 9. Discovery of (2S)-4-(2,5-difluorophenyl)-n-[(3R,4S)-3-fluoro-1-methylpiperidin-4-yl]-2-(hydroxymethyl)-N-methyl-2-phenyl-2,5-dihydro-1H-pyrrole-1-carboxamide (MK-0731) for the treatment of taxane-refractory cancer” (J Med Chem, 2008).

Molecules are shown by their SMILES.

This assay in a line: Inhibition of human KSP. In a few lines: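 His6-tagged human KSP motor domain (1-367), bacterially expressed, 0.25 nM, with 0.5 µM tubulin as paclitaxel-stabilized microtubules and 1 mM ATP. Buffer: 80 mM K-HEPES pH 6.8, 40 mM KCl, 1 mM EGTA, 2 mM MgCl2, 1 mM DTT, 0.01% BSA, 2.5% DMSO. 11-point 3-fold titration, 2 µM to 34 pM; 3 h at RT. Released phosphate read by quinaldine red/molybdate at 540 nm. Mean of at least 3 experiments.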

With `CN1CC[C@H](N(C)C(=O)N2CC(c3cc(F)ccc3F)=C[C@@]2(CO)c2ccccc2)[C@H](F)C1`, inhibition was half-maximal at 2.2 nM (IC50).
